# US6723841B2, “Corticotropin-releasing factor2 receptors” (priority 1994, dated 2004)
# Target: T1, human CRF1 receptor (Homo sapiens, UniProt P34998)
# T1 construct: expressed in transfected cells
# T1 sequence (P34998 24-415): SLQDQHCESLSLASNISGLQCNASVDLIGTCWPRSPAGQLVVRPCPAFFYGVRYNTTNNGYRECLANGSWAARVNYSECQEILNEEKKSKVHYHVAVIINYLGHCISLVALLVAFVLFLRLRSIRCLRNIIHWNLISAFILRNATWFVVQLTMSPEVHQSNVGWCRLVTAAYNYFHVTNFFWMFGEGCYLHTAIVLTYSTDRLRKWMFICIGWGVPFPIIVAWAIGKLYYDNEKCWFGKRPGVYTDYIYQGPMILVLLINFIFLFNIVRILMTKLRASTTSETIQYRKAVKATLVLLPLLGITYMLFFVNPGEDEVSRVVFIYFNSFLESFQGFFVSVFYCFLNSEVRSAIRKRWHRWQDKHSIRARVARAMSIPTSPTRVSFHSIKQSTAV
# Assay: cAMP assay (adenylate cyclase stimulation) in cells transfected with CRF1 receptor
# Type: cell-based
# Details: read-out: effective concentration of one-half maximal adenylate cyclase stimulation (EC50), human CRF1 receptor, cAMP production
substance,measurement,value
oCRF,EC50,10 nM
